As usually defined, the IC50 is the midpoint of a concentration-inhibition curve.

Test [1] concerns R2. Description: Cytotoxicity against Chinese hamster R2 cells transfected with empty PCDNA3 assessed as cell growth inhibition after 96 hrs by CellTiter-Blue assay. It is filed as cell-based, Cricetulus griseus. For orientation: The colour change of resazurin is a common sign of viable cells or microbes.
Test [2] deals with R2. Description: Cytotoxicity against PCFT-null Chinese hamster R2 cells assessed as cell growth inhibition after 96 hrs by CellTiter-Blue assay. The conditions noted are these: R2, 96 h. It is filed as cell-based, Cricetulus griseus.

Where only a bound is given, the exact number is not on record here.

Take `Nc1nc(N)c2c(CCCc3csc(C(=O)N[C@@H](CCC(=O)O)C(=O)O)c3)coc2n1`: the IC50 in test [1] and in test [2] was above 1000 nM each time.

For the origin of these results see ChEMBL document CHEMBL3627626, “6-Substituted Pyrrolo[2,3-d]pyrimidine Thienoyl Regioisomers as Targeted Antifolates for Folate Receptor α and the Proton-Coupled Folate Transporter in Human Tumors” (J Med Chem, 2015).
